# Experimental data taken from patent US20160037772A1, “INCREASING ABIOTIC STRESS TOLERANCE IN PLANTS” (priority 2014, published 2016).
# Tested on: tomato plants
# Assay: Field trial in tomato plants under heat, light and water stress (sunburn, yield, soluble solids)
# Format: in vivo
# Protocol: Field trials were conducted in commercial fields and orchards in Chile during the 2011-12 and 2012-13 growing seasons. The results were evaluated by measuring specific fruit parameters affected by abiotic stress including fruit diameter, fruit number, and amount of damage from heat or sunburn. The plants evaluated were apples and tomatoes. The plants in the trials received a conventional application of pesticides, under normal application conditions. The heat and light stress were considered important from the beginning of fruit development. High temperatures ranged between 30-35° C. ambient temperature measured by conventional methods in the shade from December to harvest.
# The treatments included (1) no product against abiotic stress; (2) SUNCROPS (kaolin); (3) SUNCROPS PLUS (kaolin and azalaic acid); (4) ONA; (5) SUNCROPS and ONA; (6) SUNCROPS PLUS and ONA; (7) SCREEN DUO (kaolin and salicylates) and (8) ECLIPSE™. Foliage and fruit were evaluated before and after treatments at regular intervals for signs of phytotoxicity. […] Furthermore, no signs of uncontrolled disease incidence was detected.
# SUNCROPS, SUNCROPS PLUS, SCREEN DUO, and ECLIPSE are commercial treatments which are used in the management of abiotic stress. Kaolins and calcium carbonates reduce stress by reflecting the ultraviolet, visible and infrared rays, reducing the impact of excessive heat and light in photosynthesis and other essential plant cellular processes. The dicarboxylic acids, such as the azalaic acid in SUNCROPS PLUS, physiologically act by interacting on lipo-oxygenation processes and production of reactive oxygen species. (Greenberg et al. “The lipid whisker model of the structure of oxidized cell membranes.” J. Biol. Chem. 283, 2385-96, 2008)
# The apple trees received six applications of each formulation at the dosages indicated in the “Dosage” column of Table 1. Tomato plants received biweekly treatments from fruit formation to fruit harvest (a total of 6 applications).
# The different stages of fruit development correspond to (1) cell division (2) pit hardening (stone fruits only) (3) cell expansion and (4) fruit ripening. The start of the tests was done during the cell division phase. This phase corresponds to the period with increased susceptibility to damage from high temperatures, and can be correlated with increase in fruits having reduced size and decrease in the number of fruits per plant as a consequence of the abiotic stress due to high temperatures.
# Treatment with ONA alone or in combination with SUNCROPS and SUNCROPS PLUS was compared with standard treatments for managing heat, light and water stress which include SCREEN DUO, SUNCROPS, SUNCROPS PLUS and ECLIPSE (see Table 1).
# In tomato plants, abiotic stress generates significant yield losses starting at temperatures of 29° C. in periods of 3-5 hours and increase as the season progresses. Furthermore, once the fruit has developed, the fruit is more susceptible to damage from heat and light, which is expressed as sunburn. The sunburn damage is very severe from the period of greatest susceptibility (once the fruit has developed) until the beginning of the color change in the fruits from yellow to green and red. […]
# The yield and sunburn were evaluated as described in Table 4 below. […] The fruit were first evaluated visually: fruits with red color as adequate for industrial processing, fruits with green color as inadequate and inappropriate for industrial processing and fruits damaged by the sun as disposable. […]
compound,measurement,setting,value
"O=CCCCCCCCC(=O)O [ONA, 9-Oxononanoic acid]","Performance compared with commercial treatments for management of heat, light and water stress",,outperformed other commercial treatments
same,Yield total,6 applications,144.6 Ton/ha
same,Sunburned Fruit,"Botalcura, Talca, Chile, biweekly treatments, 6 applications",26.8
same,Yield Sunburn,"fruits damaged by the sun, 6 applications",12.2 Ton/ha
same,Yield Red fruit,"red fruit adequate for industrial processing, 6 applications",132.4 Ton/ha
